## Apparent affinities of Ab-14 variants for a coronavirus HR2 peptide

The measurements come from Li et al. 2023 (doi:10.1038/s41467-023-39022-2) through the FLAb antibody collection.

Binding partner: SARS-CoV-2 spike HR2 peptide, sequence PDVDLGDISGINAS.

Parent scFv Ab-14: VH joined to VL by a (GGGGS)3 linker. Changes lie in the light chain CDRs alone.
VH: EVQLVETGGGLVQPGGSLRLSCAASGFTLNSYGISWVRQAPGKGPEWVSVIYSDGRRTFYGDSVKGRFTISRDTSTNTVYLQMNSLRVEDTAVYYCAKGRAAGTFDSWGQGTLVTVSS
VL: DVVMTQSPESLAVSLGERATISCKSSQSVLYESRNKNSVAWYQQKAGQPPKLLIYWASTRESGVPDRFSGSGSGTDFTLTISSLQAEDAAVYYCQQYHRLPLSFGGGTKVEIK

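Phage display of a naive human antibody library on the peptide gave the parent. These sequences belong to a second round, designed from the earlier measurements on random variants of the parent. Their group label is 14L_En_Gibbs (En: ensemble of fine-tuned language models; Gibbs: Gibbs sampling). The scFvs were displayed on barcoded MATa yeast, the peptide on MATalpha yeast. The frequency of each diploid, read from paired DNA barcodes, reflects how well the two displayed proteins bind. Each replicate has its own calibration line, from reference interactions of the BCL2 family. Mating was done six times.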

Each variant is given by its three light chain CDRs, as the data file delimits them; those of the parent are KSSQSVLYESRNKNSVA, WASTRES, QQYHRLPLS. The read-out is the apparent dissociation constant on a log10 scale (nM): the lower, the stronger. Replicates are averaged; those with no signal do not enter the mean. "nd" marks a missing value. The strain was present, yet no cells mated with the target were sequenced in that replicate, which points to weak or no binding. The authors averaged sequences with at least three values out of six and counted those with two or fewer as poor binders.

CDR-L1 | CDR-L2 | CDR-L3 | replicates, log10 nM | mean, log10 nM | control signals
HIQDARGGLSEQWNSVA | STEERSH | QQYHRLPLS | 0.71 0.82 0.35 0.74 0.38 0.64 | 0.61 | 2/18 (2.19)
KIQDNLGTLMEQINSVA | SSEEKSD | QSYFRLPLI | 0.85 0.73 1.42 0.64 0.82 1.91 | 1.06 | 0/18
VFQQQWDGHTDTNSSVA | NVDERME | QQYYRLPLL | 0.64 0.89 0.63 0.48 0.85 0.74 | 0.70 | 2/18 (2.13)
KLQNFSQEHNGMWNSIA | DMTMKHT | QHYNRLPLV | 0.83 0.64 0.84 0.70 1.05 1.05 | 0.85 | 2/18 (2.01)
KLSDTIEKMASNADNIA | DETETNM | QQYYTLPLS | 1.42 2.21 1.93 1.40 1.64 1.45 | 1.68 | 0/18
QIDSFYQHGTDQNQAMA | DVSVRDQ | QQYSRLPLS | 0.11 0.31 0.25 -0.02 0.24 0.11 | 0.17 | 2/18 (2.97)
NIVGRVNDKGTTTANIA | DAELRAG | QQYSRLPLS | 1.56 nd 1.63 2.63 1.24 1.81 | 1.77 | 0/18
NLTTGYEQGALNTDNVA | HGNMTEA | QQYYRLPLS | 0.75 0.36 0.58 0.41 0.44 0.18 | 0.45 | 1/18 (2.56)
KITSHEWHGTADNSAMA | NADVSHD | QQYSRLPLF | 0.55 0.60 0.41 0.75 0.54 0.60 | 0.57 | 1/18 (2.56)
QFARAMYHGLNDNQNIA | DAMTYIK | QQYSRLPLF | nd nd nd nd nd nd | nd | 0/18
HMMQYSEMQNIIQNNIA | DAMTRVT | QQYQHLPLS | 0.20 0.28 -0.03 -0.10 0.04 0.13 | 0.09 | 1/18 (2.67)
KITTSLYRWGSDKGAVA | EENIRAR | QQYFRLPFS | 0.61 0.31 0.44 -0.15 0.19 0.27 | 0.28 | 0/18
HLSLRLSYGNMLQNAVA | GVQARMT | QQYARLPLL | 1.18 0.56 0.57 0.80 1.32 0.81 | 0.87 | 0/18
KLWMIFFEGQQELSAVA | NAGTLVQ | QQYNVLPLS | nd nd nd nd nd nd | nd | 0/18
KFKELFNMWARAHGNVA | DADERNV | QQYSRLPIS | 0.49 1.08 1.24 2.31 0.91 1.08 | 1.18 | 0/18
KLTHPTDLWLNHASSIA | DANISVE | QQYYQLPLT | 0.63 0.05 0.95 0.29 0.04 0.14 | 0.35 | 0/18
SLAMLLNQVYAYGSNIA | NAQVLVV | QQYYRLPLT | nd 1.43 nd nd nd nd | 1.43 | 0/18
KLDMNELGQSQNSNCVA | GSAQKCS | QQYSRLPLS | 1.61 1.10 1.25 0.77 1.39 1.65 | 1.29 | 0/18
TMNMELIYGVPMMNNVA | AGSQKLA | QQYYRLPLS | 0.13 0.16 0.23 -0.19 0.17 0.15 | 0.11 | 0/18
QFDLFENYQGMQGANIA | GETNRHT | QQYQKLPLS | 1.07 2.02 1.07 1.41 1.96 1.66 | 1.53 | 2/18 (3.03)
MLSMMEQHMGDRMHNVA | DTNVAKM | QDYFRLPLM | nd nd nd nd nd nd | nd | 0/18
RMEWHNSGLLEAKNSVA | GVEHRAN | QQYDRLPLE | 1.20 0.96 0.15 0.21 0.63 0.85 | 0.67 | 0/18
GIFSQMDGPTEYKENVA | NGNERLP | QQYQRLPLT | -0.11 0.09 -0.18 -0.07 -0.16 -0.01 | -0.07 | 2/18 (2.79)
RLDLSMSYSHEGRRAIA | NADALVI | QQYHRLPLI | nd nd 1.69 nd nd 1.65 | 1.67 | 0/18
HMKDELGLGPKTYSSVA | HGSMREP | QDYYRLPLG | 2.17 1.50 1.77 2.22 1.55 1.33 | 1.76 | 0/18
FMEMDFQGNSGNHNSIA | SEEVVTR | QHYARLPLS | nd nd 1.17 nd nd nd | 1.17 | 0/18
HTQHLGFGDPYHWNNVA | DVSQVCS | QQYARLPLT | 0.09 0.15 -0.20 -0.16 -0.23 0.04 | -0.05 | 1/18 (3.21)
KIFYRQEEDLRHESSIA | NGMARVK | QQYYMLPLS | 0.53 0.60 0.92 0.83 0.68 0.91 | 0.74 | 1/18 (3.19)
KLSLGLGVSKQVEKNIA | NERLKIA | QQYDRLPLT | 0.97 1.04 0.48 0.56 0.60 0.82 | 0.74 | 1/18 (3.18)
NLGGLDFNSTYEMKAVA | DVSEVGE | QHYSRLPLS | 1.11 1.35 0.98 1.13 1.30 1.34 | 1.20 | 4/18 (2.15)
MMTMFPNEPTGDSSNIA | DTNQLNT | QQYQRLPLM | 0.63 0.80 0.62 0.54 0.66 0.60 | 0.64 | 1/18 (2.71)
KLQWQQYGENQQEAAIA | NEQTVAQ | QQYSKLPLT | 1.09 0.93 1.28 0.71 1.10 1.29 | 1.07 | 2/18 (2.84)
NLSDGEMYENATRSHIA | DTKMRDF | QQYNRLPLT | 1.17 1.05 0.91 1.52 1.40 1.96 | 1.33 | 0/18
QTTAFYQHGHDQNQAMA | DVTMRDQ | QQYSRLPLS | 0.35 0.26 0.10 0.13 0.25 0.26 | 0.23 | 2/18 (3.77)
NVHALMNISSEFQNSIA | DEECRDA | QQYFRLPLS | 2.98 1.85 1.82 1.81 1.76 2.09 | 2.05 | 1/18 (3.67)
DVHALMNHSSDLMQSIA | DEECRDA | QQYERLPLS | 1.85 3.50 2.60 1.87 2.29 2.15 | 2.38 | 1/18 (2.20)
TIDDEMPNHGFKWNSIA | GVATVLQ | QQYDRLPLS | 1.46 1.17 1.35 1.19 1.16 1.51 | 1.31 | 3/18 (3.68)
HIQGYFTMPENANNNIA | DKHYQVR | QQYYRLPLA | 1.18 1.05 nd 1.69 nd nd | 1.31 | 0/18
SLMDNIWVEDTYRKAIA | DRNVRAK | QQYHRLPLS | 0.55 0.68 0.64 0.53 0.58 0.77 | 0.62 | 0/18

The closing 6 entries, repeated:

CDR-L1 | CDR-L2 | CDR-L3 | replicates, log10 nM | mean, log10 nM | control signals
QTTAFYQHGHDQNQAMA | DVTMRDQ | QQYSRLPLS | 0.35 0.26 0.10 0.13 0.25 0.26 | 0.23 | 2/18 (3.77)
NVHALMNISSEFQNSIA | DEECRDA | QQYFRLPLS | 2.98 1.85 1.82 1.81 1.76 2.09 | 2.05 | 1/18 (3.67)
DVHALMNHSSDLMQSIA | DEECRDA | QQYERLPLS | 1.85 3.50 2.60 1.87 2.29 2.15 | 2.38 | 1/18 (2.20)
TIDDEMPNHGFKWNSIA | GVATVLQ | QQYDRLPLS | 1.46 1.17 1.35 1.19 1.16 1.51 | 1.31 | 3/18 (3.68)
HIQGYFTMPENANNNIA | DKHYQVR | QQYYRLPLA | 1.18 1.05 nd 1.69 nd nd | 1.31 | 0/18
SLMDNIWVEDTYRKAIA | DRNVRAK | QQYHRLPLS | 0.55 0.68 0.64 0.53 0.58 0.77 | 0.62 | 0/18

A sequence measured in both rounds can read differently, since the two assays cover different ranges. Empty control strains, which show no peptide, gave a signal in 4% of pairings with all light chain designs; the median was 2.64 and 95% of these signals were weaker than 1.59. No background was subtracted. The control count says in how many pairings with the empty strains this scFv gave a signal, with their mean in brackets. Of ten entries with the parent sequence, four were seen in most replicates (averages 0.34 to 2.37), three in one and three in none, so single entries are noisy.